Binding of CDR-mutated scFvs to a peptide of the spike HR2 region

Reference: Engelhart et al. 2022, doi:10.1038/s41597-022-01779-4. File: FLAb, binding data.

All variants were tested on one target, the spike HR2 peptide PDVDLGDISGINAS (SARS-CoV-2).

Ab-14 is the parent antibody, in scFv form: VH, then three GGGGS repeats, then VL. The light chain is unchanged in all variants.
VH: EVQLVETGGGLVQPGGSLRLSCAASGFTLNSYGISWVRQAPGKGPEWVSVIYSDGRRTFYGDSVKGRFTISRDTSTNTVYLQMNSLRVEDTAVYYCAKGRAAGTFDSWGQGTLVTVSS
VL: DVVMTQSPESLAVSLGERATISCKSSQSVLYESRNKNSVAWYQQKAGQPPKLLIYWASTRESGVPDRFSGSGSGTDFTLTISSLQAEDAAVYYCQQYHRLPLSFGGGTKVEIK

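Phage display of a naive human antibody library on the peptide gave the parent. Variants in AAYL49 differ from the parent at up to three CDR positions; double and triple changes were sampled at random. The assay is AlphaSeq: two haploid yeast populations carry antibody and antigen on their surface. After mating in shaken culture at 30 °C for 16 h, diploids were selected and their barcode pairs sequenced. Scores were corrected for input abundance and mapped to Kd with protein pairs of known affinity run in the same pool. Mating was done three times.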

Each variant is given by its three heavy chain CDRs, as the data file delimits them; those of the parent are GFTLNSYGIS, VIYSDGRRTFYGDSVK, GRAAGTFDS.
The read-out is the apparent dissociation constant on a log10 scale (nM): the lower, the stronger.
Averages over replicates are reported, and they cover detected replicates only.
An entry "ND" has no value in the source: the pair was not observed among the diploids in that replicate. This suggests poor binding but is not conclusive.

CDR-H1 | CDR-H2 | CDR-H3 | log10 Kd (nM) by replicate | mean log10 Kd (nM) | signal with controls
GFTLNSYGIS | VIYSDGRRTAYGDSVK | GRAVGTFDS | ND ND ND | ND | 1 of 9 (3.55)
GFTLNSYGPS | VIYSDTRRTFYGDSVK | GRRAGTFDS | ND 3.42 ND | 3.42 | 0 of 9
GFTLNSYGIS | VIYTDGRETFYGDSVK | GRAAGTFDS | 3.98 ND ND | 3.98 | 5 of 9 (4.10)
GFTLNSYGIS | RIYSDGRRTFTGDSVK | GVAAGTFDS | ND ND ND | ND | 0 of 9
GFTLNQYGIS | VIQSDKRRTFYGDSVK | GRAAGTFDS | ND ND ND | ND | 4 of 9 (4.22)
GFTLNSYGES | WIYSCGRRTFYGDSVK | GRAAGTFDS | 4.10 ND ND | 4.10 | 2 of 9 (3.42)
GFTLNSYFIS | VIYSDGRRTFYGDSVK | GLAAGTRDS | ND ND ND | ND | 0 of 9
GYTLNSYGIH | VIYSDGRRTFYDDSVK | GRAAGTFDS | ND ND ND | ND | 1 of 9 (3.75)
GFTLNSYGIS | VIYSDGRRLFYGDSVK | GRAAGDFDS | 3.34 ND ND | 3.34 | 2 of 9 (4.14)
AFTCNSYGIS | VIKSDGRRTFYGDSVK | GRAAGTFDS | ND ND 6.08 | 6.08 | 2 of 9 (3.53)
GFTLNSYGIS | VIYSDGRRTFYGQSVK | GAAAGTVDS | ND ND ND | ND | 0 of 9
GFTLNSYGIS | VIYPDGRRTFWGDSVK | GRADGTFDS | ND ND 3.40 | 3.40 | 0 of 9
GFTLVSYGSS | VQYSDGRRTFYGDSVK | GRAAGTFDS | ND ND 4.46 | 4.46 | 1 of 9 (3.81)
GFTLASYGIS | AIYSDGRRTFYGDSVH | GRAAGTFDS | ND ND ND | ND | 0 of 9
GFTLNSYGIS | VITSDGRRTFYGDSVK | GRAAGTFDS | ND ND 5.78 | 5.78 | 2 of 9 (3.89)
GFTVNSYGIS | VIYSDGRRTFYGDSVK | GRAQGTNDS | 2.91 2.66 3.71 | 3.09 | 3 of 9 (4.03)
GFTLNSYGIS | VIYSDGRRTFWGDSVK | GRAAGCFVS | ND ND ND | ND | 0 of 9
GFTLNSYGIS | VIYSKGRRTFYYDSVK | HRAAGTFDS | 3.91 ND ND | 3.91 | 2 of 9 (4.43)
GFTLNWYGIS | VIYSDGRRTFYGDSVK | GRHAGTFDS | 1.46 1.40 1.42 | 1.42 | 1 of 9 (2.49)
GFTINMYGIS | VIYSDGRRTFYGDSVK | GRACGTFDS | 1.40 1.46 1.34 | 1.40 | 1 of 9 (2.71)
GFTLNSYGIS | VIYSDGRRTFYRDSVK | YRAAGTFDM | ND ND ND | ND | 0 of 9
GFTLNSYGIS | VIYSDGRRTIYGDSVS | GRAADTFDS | ND ND ND | ND | 2 of 9 (3.69)
GFTLNSYGIS | VIYSDGNRTFYGDSVK | IRAAGTFDQ | ND ND ND | ND | 0 of 9
GFTLNSYGIS | PIYSDGRRTFYGDSIC | GRAAGTFDS | ND ND ND | ND | 0 of 9
GFTLNSYGIS | VIYSDNRRTFYGDSVK | GRAAPTFDL | ND ND 2.25 | 2.25 | 1 of 9 (3.36)
PFTLNSYGIS | VIYSWGRRTFYGDSVK | GFAAGTFDS | ND ND ND | ND | 0 of 9
GFTLNSYGIL | VIYSDRRRTFYGDSVK | GRAAGTQDS | ND ND ND | ND | 0 of 9
GFTLNSYGIS | VIYSCGRRTFFHDSVK | GRAAGTFDS | ND ND ND | ND | 0 of 9
GFTLNSYGIS | VIYMDGIRTFYGDSVV | GRAAGTFDS | ND ND ND | ND | 1 of 9 (4.76)
GFNLNNYGIS | VIYSDGRRTFYGDSVK | GRAAGTFHS | ND ND ND | ND | 0 of 9
GFTLNSYVIS | CISSDGRRTFYGDSVK | GRAAGTFDS | ND ND ND | ND | 2 of 9 (1.59)
GFTLNSYGIN | VIYSDGRRTFYYDSVL | GRAAGTFDS | ND ND ND | ND | 0 of 9
GFTLNSMGIS | VIYSDGRRTFYSDSVK | GRAAGTFDS | ND ND ND | ND | 1 of 9 (4.16)
GFTLNSYGIS | VIYSDGRRTFYGDSHT | GGAAGTFDS | 4.42 ND 4.91 | 4.66 | 2 of 9 (3.92)
GFHLNNYGIS | VIYSDGRRTFYGDGVK | GRAAGTFDS | 1.55 1.85 2.01 | 1.80 | 2 of 9 (3.94)
GFTLNSYGIS | VIYSDGMRIFYGDSVK | GRAAGTFDM | 3.13 3.11 2.68 | 2.97 | 0 of 9
GFTLNHYGIS | VIYSDGRRTVYGDSAK | GRAAGTFDS | 1.29 1.59 1.51 | 1.46 | 0 of 9
GFTLNSCGGS | VIYSDGRFTFYGDSVK | GRAAGTFDS | 3.97 ND ND | 3.97 | 1 of 9 (2.37)
GFTLNSYGIS | VGYSDGRSTFYGDSVK | GRAAGTIDS | ND ND ND | ND | 1 of 9 (3.64)
GFTLNSYGIS | VKYSDGRDTFYGDSVV | GRAAGTFDS | ND ND ND | ND | 0 of 9
GFTLNSYGIS | QIYSDGRQTFYGDSVK | GRAAGTFTS | ND ND ND | ND | 0 of 9
GFTLNSYGIS | VIYNDGRRTFYGDSDK | GRAAGTFDG | ND ND ND | ND | 0 of 9
FFTLNSYGIS | VIYSDGRRTFYGDSVL | GRAAGEFDS | 3.56 3.06 ND | 3.31 | 3 of 9 (3.89)
GFTLNSYGIH | VIYSDGRRTFYGDSVK | GRAAGLFDP | 0.83 1.04 1.20 | 1.02 | 1 of 9 (4.07)

Three control strains display no target. For library AAYL49, 15% of the pairings with them gave a signal, with a median of 4.06 and one signal in twenty below 2.83, so weak values seen in few replicates may be background. The control count says in how many pairings with the empty strains this scFv gave a signal, with their mean in brackets.